In US20250205191A1, “R(-)-MDMA COMPOSITIONS AND METHODS OF TREATMENT” (EmpathBio, Inc., priority 2023, published 2025):

Key:
prolactin = experiment: Phase 1 hormone response, prolactin; type: in vivo, human; conditions: 125 mg-225 mg vs placebo group
[1] = Phase 1 clinical study, plasma pharmacokinetics; conditions: for dose proportionality in plasma: 75 to 225 mg single oral dose

Row | SMILES | concentration of prolactin (prolactin) | dose proportionality in plasma [1] | absorption ([1]; single oral dose of 75 to 225 mg, all dose levels)
1 | CN[C@H](C)Cc1ccc2c(c1)OCO2 [R(−)-MDMA, R(−)-3,4-methylenedioxymethamphetamine] | statistically significant increase | not established | rapidly absorbed
2 | C[C@@H](N)Cc1ccc2c(c1)OCO2 [R-MDA] | – | not established | –
